Cyclic peptide permeability, from CycPeptMPDB

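The data file gives no further conditions (lipid, pH, time, direction or concentration), and values from different papers need not be comparable. The list need not hold all peptides of the study. Entries at the database's floor value (log10 P of -10) are not listed.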

Caco-2: transport across a human colon carcinoma cell monolayer. Permeability is given as log10 of P in cm/s; higher (less negative) is more permeable.

| structure (SMILES) | Caco-2 (log10 cm/s) |
|---|---|
| CC(C)C[C@@H]1NC(=O)[C@@H](CC(C)C)N(C)C(=O)[C@H](CC(C)C)N(C)C(=O)[C@H]2CCCN2C(=O)[C@H](Cc2ccc(O)cc2)NC(=O)[C@H](CC(C)C)N(C)C1=O | -5.69 |
| CC(C)C[C@@H]1C(=O)N[C@H](CC(C)C)C(=O)N[C@@H](Cc2ccc(O)cc2)C(=O)N2CCC[C@@H]2C(=O)N(C)[C@@H](CC(C)C)C(=O)N(C)[C@H](CC(C)C)C(=O)N1C | -4.79 |
| CC(C)C[C@@H]1NC(=O)[C@@H](CC(C)C)N(C)C(=O)[C@H](CC(C)C)N(C)C(=O)[C@H]2CCCN2C(=O)[C@H](Cc2ccc(O)cc2)NC(=O)[C@@H](CC(C)C)N(C)C1=O | -5.95 |
| CC(C)C[C@@H]1C(=O)N(C)[C@@H](CC(C)C)C(=O)N[C@H](CC(C)C)C(=O)N[C@@H](Cc2ccc(O)cc2)C(=O)N2CCC[C@@H]2C(=O)N(C)[C@@H](CC(C)C)C(=O)N1C | -4.63 |
| CC(C)C[C@@H]1NC(=O)[C@@H](CC(C)C)N(C)C(=O)[C@@H](CC(C)C)N(C)C(=O)[C@H](CC(C)C)N(C)C(=O)[C@H]2CCCN2C(=O)[C@H](Cc2ccc(O)cc2)NC1=O | -5.67 |
| CC(C)C[C@@H]1NC(=O)[C@H](CC(C)C)N(C)C(=O)[C@H]2CCCN2C(=O)[C@H](Cc2ccc(O)cc2)NC(=O)[C@H](CC(C)C)N(C)C(=O)[C@@H](CC(C)C)N(C)C1=O | -4.70 |
| CC(C)C[C@@H]1NC(=O)[C@H](CC(C)C)N(C)C(=O)[C@@H](CC(C)C)N(C)C(=O)[C@H](CC(C)C)N(C)C(=O)[C@H]2CCCN2C(=O)[C@H](Cc2ccc(O)cc2)NC1=O | -6.42 |
| CC(C)C[C@@H]1C(=O)N[C@H](CC(C)C)C(=O)N(C)[C@@H](CC(C)C)C(=O)N[C@@H](Cc2ccc(O)cc2)C(=O)N2CCC[C@@H]2C(=O)N(C)[C@@H](CC(C)C)C(=O)N1C | -6.26 |
| CC(C)C[C@@H]1C(=O)N[C@@H](Cc2ccc(O)cc2)C(=O)N2CCC[C@@H]2C(=O)N(C)[C@@H](CC(C)C)C(=O)N(C)[C@H](CC(C)C)C(=O)N[C@H](CC(C)C)C(=O)N1C | -6.36 |

Data: CycPeptMPDB; original report Hewitt et al. 2015, doi:10.1021/ja508766b.